SMILES strings stand for the structures.

The record followed here is ChEMBL document CHEMBL1128821, “Evaluation of differential hypoxic cytotoxicity and electrochemical studies of nitro 5-deazaflavins” (Bioorg Med Chem Lett, 1995).

The assay is described as follows: Ratio of IC50 values under aerobic to that of anaerobic conditions. The format is functional.
For `CCCCCCCCCCCCn1c2nc(=O)n(C)c(=O)c-2cc2ccc([N+](=O)[O-])cc21`, the Ratio is 2.1. As to `CCCCCCCCCCCCn1c2nc(=O)[nH]c(=O)c-2cc2ccc([N+](=O)[O-])cc21`, the Ratio worked out at 1.6. Turning to `CCCCCCCCn1c2nc(=O)n(-c3ccccc3)c(=O)c-2cc2c([N+](=O)[O-])cccc21`, the Ratio is 6.4.

As to `CCCCCCCCn1c2nc(=O)n(-c3ccccc3)c(=O)c-2cc2ccc([N+](=O)[O-])cc21`, the Ratio is 5.1.

Turning to `NC(=O)N/N=C/c1ccc([N+](=O)[O-])o1` [NITROFURAZONE], the Ratio was 2.7. Take `CCCCCCCCCCCCn1c2nc(=O)n(C)c(=O)c-2cc2c([N+](=O)[O-])cccc21`: the Ratio came to 2.5.

Consider `CCCCCCCCCCCCn1c2nc(=O)[nH]c(=O)c-2cc2c([N+](=O)[O-])cccc21`, for which the Ratio amounted to 3.9.
